In patent US12295973B2, “Luteinizing hormone receptor binding agents and luteinizing hormone agonists to identify, expand, ablate and modify stem cells” (Fred Hutchinson Cancer Center, priority 2017, dated 2025):

Legend:
[1] = test system: mice exposed to L-TBI; experiment: Mouse survival after lethal total body irradiation (L-TBI, 840cGy); type: in vivo; conditions: hCG given to LHRH-Ant treated mice that had been given L-TBI 1 day prior
Description: Description. Inhibition of sex steroids, which can be achieved in a reversible fashion pharmacologically, is a well-described strategy to promote lymphopoiesis in the BM and thymus^8,7,14,15. Although the most common method of sex steroid ablation clinically has been to use LHRH-agonists, it was described that an LHRH-Antagonist represents a more rational approach to promote immediate ablation of sex steroids for immune regeneration as it is far more rapid and abrogates the initial surge in sex steroids that LHRH-Agonist cause^16. Taken together with the impact of sex steroid inhibition on HSC function and the rapid regenerative effects of LHRH-Ant, it was hypothesized that LHRH-Ant could represent a rational non-cellular medical countermeasure for mitigating radiation injury and promoting hematopoietic regeneration when administered after hematopoietic insult. To test this hypothesis, a lethal TBI (L-TBI) dose of 840cGy that mediated lethality in more than 90% of mice (FIG. 1A) was used. […] Mouse lethality was a result of bone marrow failure, since transplant of BM Lin-Sca1^+tkit^+ (LSK) cells 3 days after L-TBI completely rescued all mice (FIG. 1B). […] It was then tested if LHRH-Ant could mediate even greater mouse survival when administered multiple times.
Methods. […] To assess mouse survival after radiation, mice were monitored for up to 60 days after TBI. […]

[2] = cited from earlier work
[3] = test system: purified LSK cells; experiment: In vitro effect of LH in CAFC and CFC assays, mouse LSK cells co-cultured with MS-5; type: cell-based; conditions: 0.5 or 5 μg/ml of LH
Description: Colony-Forming Cell (CFC) and Cobblestone Areas Forming Cell (CAFC): Assays were performed as previously described with a minor modifications^50. For CFC assays, 5×10^4 BM nucleated cells (BMNC) per 1 mL of Iscove's modified Dulbecco's medium (GIBCO) supplemented with 1.2% methylcellulose (Dow Chemicals, MI), 30% FBS, 2 mM glutamine, 0.1 mM monothiolglycerol, 0.1 mg/ml hemin (Sigma Inc, MO), 0.05 mg gentamicin, 20 ng/mL murine c-kit ligand (Amgen Inc, CA), 6 units/ml human Epogen (Amgen Inc. CA), and 20 ng/mL murine IL-3 (Pepro Tech Inc., NJ) were plated in triplicates in 35-mm non-tissue culture dishes (Corning-Costar, NY). When there were fewer BMNC, all the BM cells were equally plated to Petri dishes in triplicates. Colonies were scored after 10 days of incubation at 37° C. and 5% CO2. […] After 3 weeks of co-culture, CAFCs were scored as phase-dark hematopoietic clones of at least 5 cells beneath the stromal layer using an inverted microscope.
Mouse cells: Two thousand purified LSK cells and MS-5 cells were co-cultured in T-12.5 flasks with or without 0.5 or 5 μg/ml of LH in 4 replicates. […] After three weeks, CAFC were scored. […]

[4] = test system: human HSC1 (CD34+CD38−CD45RA−CD90+); experiment: In vitro expansion of human HSC1 in stroma-free culture system; type: cell-based; conditions: fresh LH every day
Description: Human cells: Human umbilical cord blood (UCB) CD34+ cells were harvested, enriched and cultured as previously described^52. Briefly before enrichment of NHP CD34+ cells, red cells were lysed in ammonium chloride lysis buffer. For enrichment of human CD34+ cells, microbead conjugated anti-CD34 antibody (Miltenyi Biotech) was used. Enriched and sort-purified CD34+ cells were cultured in StemSpan (Stemcell Technologies) supplemented with 100 U/ml penicillin streptomycin (Gibco by Life Technologies) and SCF, TPO and FLT3-L (all Peprotech) (100 ng/ml each) with 50% exchange of culture medium on day 4. Fresh LH was added every day for the total duration of in vitro culture. For CFC assays 400 sorted cells were seeded into 1 ml MethoCult H4435 (StemCell Technologies). Hematopoietic colonies were scored after 12-14 days. Arising colonies were identified as colony forming unit—(CFU-) granulocyte (CFU-G), macrophage (CFU-M), granulocyte-macrophage (CFU-GM) and burst forming unit-erythrocyte (BFU-E). Colonies consisting of erythroid and myeloid cells were scored as CFU-MIX.

Row | Substance | survival after radiation injury in LHRH-Ant treated mice [1] | half-life [2] | colony formation in cobblestone area-forming cell (CAFC) assay [3] | colony formation in colony-forming cell (CFC) assay [3] | expansion of human HSC1 in vitro [4]
1 | human chorionic gonadotropin [hCG] | abrogated the beneficial effects of LHRH-Ant on survival | several hours |  |  | 
2 | luteinizing hormone [LH] |  | 1 to 2 h | significantly enhanced colony formation | significantly enhanced colony formation | significantly expand human HSC1
